Results from US12428459B2, “Protein tag to induce ligand dependent degradation of protein/protein-fusions” (DANA-FARBER CANCER INSTITUTE, INC., priority 2019, dated 2025).

By UniProt entry, the sequences of proteins in these tests, tags left out. Residues count along the entry.
UniProt Q14498, 245-332 limits assumed: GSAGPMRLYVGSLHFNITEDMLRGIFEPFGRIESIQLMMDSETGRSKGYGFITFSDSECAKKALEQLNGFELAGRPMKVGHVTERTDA

Biological target: RBM39RRM2-biotin (Homo sapiens, UniProt Q14498)
Experiment: TR-FRET titration of BodipyFL-E7820 probe to RBM39RRM2-biotin
Conditions: RBM39RRM2-biotin alone

Structure (SMILES): CC1=CC(C)=[N+]2C1=Cc1ccc(CCC(=O)NCCCCCCOc3ccc(S(=O)(=O)Nc4ccc(C)c5c(C#N)c[nH]c45)cc3C#N)n1[B-]2(F)F
- Binding to RBM39RRM2: only observed for DDB1ΔB-DCAF15biotin
